Data as given in BindingDB's records for doi:10.1038/nchembio.81 (The Medical School, Newcastle University, 2008).

Molecular target: T1, Beta-mannosidase (Bacteroides thetaiotaomicron, UniProt Q8AAK6)
T1 sequence (Q8AAK6 whole entry): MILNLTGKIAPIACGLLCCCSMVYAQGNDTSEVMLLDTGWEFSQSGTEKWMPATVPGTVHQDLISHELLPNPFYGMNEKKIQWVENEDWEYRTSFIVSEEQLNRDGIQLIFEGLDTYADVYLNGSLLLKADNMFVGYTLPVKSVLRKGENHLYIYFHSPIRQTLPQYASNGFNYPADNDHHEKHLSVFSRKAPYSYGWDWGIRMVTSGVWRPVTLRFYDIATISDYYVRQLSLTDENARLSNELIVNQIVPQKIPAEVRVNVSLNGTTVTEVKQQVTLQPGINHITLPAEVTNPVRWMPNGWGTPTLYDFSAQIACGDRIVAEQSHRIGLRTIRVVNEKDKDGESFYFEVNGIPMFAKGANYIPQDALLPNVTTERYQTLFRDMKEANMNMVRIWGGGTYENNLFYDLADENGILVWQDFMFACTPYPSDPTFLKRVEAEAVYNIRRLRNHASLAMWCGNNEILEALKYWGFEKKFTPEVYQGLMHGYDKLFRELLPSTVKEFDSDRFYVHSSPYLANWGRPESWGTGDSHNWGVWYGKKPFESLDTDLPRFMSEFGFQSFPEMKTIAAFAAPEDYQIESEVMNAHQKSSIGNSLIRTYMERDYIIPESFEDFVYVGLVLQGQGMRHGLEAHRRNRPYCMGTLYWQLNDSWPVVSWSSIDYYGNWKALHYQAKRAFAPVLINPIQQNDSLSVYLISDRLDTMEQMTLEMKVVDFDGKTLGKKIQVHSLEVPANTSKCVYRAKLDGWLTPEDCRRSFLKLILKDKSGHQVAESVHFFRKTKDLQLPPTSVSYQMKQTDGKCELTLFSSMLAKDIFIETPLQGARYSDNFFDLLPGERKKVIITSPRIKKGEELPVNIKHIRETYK
Experiment: Putative mannosidase assay using wild-type protein Btman2A. Enzyme inhibition assay.
Conditions: pH 5.6; 37 °C

## OC[C@H]1C[C@@H]2[C@@H](O)[C@@H](O)[C@@]1(O)CN2Cc1ccccc1 [(1R,4R,5R,7R,8R)-2-Benzyl-5-(hydroxymethyl)-2-azabicyclo[2.2.2]octane-4,7,8-triol, 4a]
  Ki: 13 µM
